Publication PMC6255194, “Structure-guided development of selective M3 muscarinic acetylcholine receptor antagonists” (2018)

Protein sequences, listed by entry. Tags and fused reporters are not part of them. Lines headed by an entry give the natural chain unless they say otherwise; changes in a name come on top. Residues count along the entry.
UniProt P20309, whole entry, looked up: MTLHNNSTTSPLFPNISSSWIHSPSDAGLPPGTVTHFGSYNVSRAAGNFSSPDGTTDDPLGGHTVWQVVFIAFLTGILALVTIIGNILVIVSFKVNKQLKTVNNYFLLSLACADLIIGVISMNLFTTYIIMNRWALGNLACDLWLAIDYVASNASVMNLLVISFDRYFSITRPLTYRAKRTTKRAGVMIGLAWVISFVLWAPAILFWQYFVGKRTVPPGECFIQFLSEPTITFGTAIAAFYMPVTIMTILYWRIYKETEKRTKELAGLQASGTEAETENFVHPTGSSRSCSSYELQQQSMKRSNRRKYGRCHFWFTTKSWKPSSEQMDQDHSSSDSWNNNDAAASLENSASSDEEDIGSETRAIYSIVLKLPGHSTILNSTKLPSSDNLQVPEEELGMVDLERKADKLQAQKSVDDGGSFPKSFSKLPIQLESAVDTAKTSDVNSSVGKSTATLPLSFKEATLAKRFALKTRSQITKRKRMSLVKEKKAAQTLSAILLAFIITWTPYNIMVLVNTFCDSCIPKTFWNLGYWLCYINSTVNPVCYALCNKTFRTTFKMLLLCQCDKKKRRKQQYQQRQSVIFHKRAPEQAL
UniProt P20309, 483-590 limits assumed: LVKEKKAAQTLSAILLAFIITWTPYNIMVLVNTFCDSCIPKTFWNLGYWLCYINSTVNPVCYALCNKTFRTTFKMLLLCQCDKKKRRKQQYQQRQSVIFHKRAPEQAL
UniProt P20309, 1-260 limits assumed: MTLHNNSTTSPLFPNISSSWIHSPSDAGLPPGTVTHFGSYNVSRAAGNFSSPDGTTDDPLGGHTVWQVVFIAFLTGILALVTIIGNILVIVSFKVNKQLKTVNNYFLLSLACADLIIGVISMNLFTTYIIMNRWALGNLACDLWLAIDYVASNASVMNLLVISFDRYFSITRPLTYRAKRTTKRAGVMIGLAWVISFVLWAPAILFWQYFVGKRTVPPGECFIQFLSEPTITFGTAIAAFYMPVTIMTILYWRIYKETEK
UniProt P08912, whole entry, looked up: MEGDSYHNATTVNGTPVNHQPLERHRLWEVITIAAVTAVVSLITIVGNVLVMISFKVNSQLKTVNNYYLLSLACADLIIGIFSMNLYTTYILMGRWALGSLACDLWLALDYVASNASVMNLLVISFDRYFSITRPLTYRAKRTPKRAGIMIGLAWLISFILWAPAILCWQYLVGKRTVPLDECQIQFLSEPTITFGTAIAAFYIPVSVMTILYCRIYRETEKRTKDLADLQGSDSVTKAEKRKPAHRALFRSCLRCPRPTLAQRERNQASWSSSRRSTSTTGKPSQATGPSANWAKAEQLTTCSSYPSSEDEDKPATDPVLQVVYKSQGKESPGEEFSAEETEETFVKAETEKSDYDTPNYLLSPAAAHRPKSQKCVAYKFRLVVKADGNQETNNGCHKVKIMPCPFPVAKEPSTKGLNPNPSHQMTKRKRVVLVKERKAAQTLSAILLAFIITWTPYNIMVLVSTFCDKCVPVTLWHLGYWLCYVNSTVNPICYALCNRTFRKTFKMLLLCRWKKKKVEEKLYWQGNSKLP
UniProt P11229: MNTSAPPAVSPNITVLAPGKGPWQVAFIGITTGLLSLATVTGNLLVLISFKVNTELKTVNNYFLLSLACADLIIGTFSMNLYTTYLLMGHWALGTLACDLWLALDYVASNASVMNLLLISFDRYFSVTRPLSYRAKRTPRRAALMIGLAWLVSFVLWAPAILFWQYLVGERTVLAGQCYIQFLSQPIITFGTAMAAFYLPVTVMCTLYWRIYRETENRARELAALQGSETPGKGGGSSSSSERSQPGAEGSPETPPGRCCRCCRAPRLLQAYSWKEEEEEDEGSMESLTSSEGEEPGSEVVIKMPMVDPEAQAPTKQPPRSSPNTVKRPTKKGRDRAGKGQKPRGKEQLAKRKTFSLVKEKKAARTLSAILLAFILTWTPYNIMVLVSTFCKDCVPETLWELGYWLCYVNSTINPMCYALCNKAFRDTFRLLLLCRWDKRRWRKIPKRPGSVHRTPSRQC
UniProt P08173, whole entry, looked up: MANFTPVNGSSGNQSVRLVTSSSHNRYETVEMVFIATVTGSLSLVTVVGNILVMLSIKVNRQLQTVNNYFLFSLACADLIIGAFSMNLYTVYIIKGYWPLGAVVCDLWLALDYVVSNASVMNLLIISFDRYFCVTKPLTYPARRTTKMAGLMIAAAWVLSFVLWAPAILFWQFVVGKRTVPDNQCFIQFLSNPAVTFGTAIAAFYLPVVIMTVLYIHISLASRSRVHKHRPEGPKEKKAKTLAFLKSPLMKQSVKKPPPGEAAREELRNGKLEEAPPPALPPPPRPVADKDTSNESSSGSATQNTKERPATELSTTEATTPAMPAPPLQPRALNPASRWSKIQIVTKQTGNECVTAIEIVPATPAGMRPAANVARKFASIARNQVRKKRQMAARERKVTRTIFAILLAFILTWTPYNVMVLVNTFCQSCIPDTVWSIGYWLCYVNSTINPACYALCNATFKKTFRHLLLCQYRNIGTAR

Tests used:
[1] = tested on: heart rate, an M2R-mediated response; assay: Methacholine-induced heart rate response in anaesthetized mice
[2] = molecular target: T1, M3R (Homo sapiens, UniProt P20309); assay: IP accumulation (IP-One HTRF), carbachol-stimulated HEK-293 cells; conditions: data not shown
[3] = molecular target: T1, M3R; assay: Competition association binding kinetics with [3H]-NMS
[4] = molecular target: hM5R (Homo sapiens, UniProt P08912); assay: Equilibrium [3H]-NMS competition binding, M5R; conditions: read-out: M5R Ki
[5] = molecular target: hM3R-Δi3 (Homo sapiens, UniProt P20309); assay: Equilibrium [3H]-NMS competition binding, M3R; conditions: read-out: affinity in equilibrium binding (M3R); may be affected by ligand depletion
[6] = molecular target: hM1R (Homo sapiens, UniProt P11229); assay: Equilibrium [3H]-NMS competition binding, M1R; conditions: read-out: M1R Ki
[7] = molecular target: hM4R (Homo sapiens, UniProt P08173); assay: Equilibrium [3H]-NMS competition binding, M4R; conditions: read-out: M4R Ki
[8] = molecular target: T1, M3R; assay: β-arrestin-2 recruitment (PathHunter), carbachol-stimulated HEK-293 cells; conditions: data not shown
[9] = tested on: airway resistance, an M3R-mediated response; assay: Methacholine-induced airway resistance in anaesthetized mice; conditions: i.v. methacholine, range for individual mice

With `O=C(Nc1ccc(F)cc1-c1ccccc1)OC1CN2CCC1CC2` (stereo not drawn) the “mean heart rate response to methacholine after pretreatment” value ([1]; pretreatment 1 * 10^−7 mol/kg vs saline, then methacholine) was “no significant difference”.
For `C[N+]1(C)C2CC(OC(=O)Nc3ccc(F)cc3-c3cccs3)CC1C1OC12` (stereo not drawn), the “agonist properties, IP accumulation” value [2] was “no agonist properties”, the “Kd from association and dissociation rates” value ([3]; M3R membranes) was 0.012 nM and the dissociation half-life ([3]; M3R, room temperature) was 14.8 h. The “preference for M3R over M2R (kinetic Kd)” value ([3]; from association/dissociation rates) was 33 fold, the Ki [4] was 0.047 nM and the Ki [5] was 0.027 nM. The Ki [6] was 0.011 nM, the Ki [7] was 0.009 nM and the “agonist properties, β-arrestin recruitment” value [8] was “no agonist properties”.
With `CC(=O)OC(C)C[N+](C)(C)C` (stereo not drawn) the “increase of airway resistance” value [9] was 25.3 to 87.6% and the “reduction of heart rate” value ([1]; i.v. methacholine, range for individual mice) was −13.6 to −22.7%.
